Data from ChEMBL document CHEMBL1146625, “The kinetics of binding to p38MAP kinase by analogues of BIRB 796” (Bioorg Med Chem Lett, 2003).

The chains behind the UniProt entries cited, without tags or fusion partners.
UniProt Q16539, whole entry: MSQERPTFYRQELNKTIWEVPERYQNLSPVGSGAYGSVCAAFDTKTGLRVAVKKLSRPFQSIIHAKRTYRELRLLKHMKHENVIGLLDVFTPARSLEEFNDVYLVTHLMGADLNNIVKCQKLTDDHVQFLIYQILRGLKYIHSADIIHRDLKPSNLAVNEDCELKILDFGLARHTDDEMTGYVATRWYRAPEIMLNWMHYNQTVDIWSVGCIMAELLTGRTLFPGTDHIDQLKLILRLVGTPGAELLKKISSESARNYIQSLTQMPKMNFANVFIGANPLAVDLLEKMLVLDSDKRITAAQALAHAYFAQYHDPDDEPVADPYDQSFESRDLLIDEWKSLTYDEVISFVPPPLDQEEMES

Key:
[1] = target: T1, Mitogen-activated protein kinase 14 (Homo sapiens, UniProt Q16539)
[2] = target: T1, Mitogen-activated protein kinase 14; remark: listed apart in the source

Structure (SMILES) | k on [1] [M⁻¹ s⁻¹] | k off [2] [s⁻¹]
Cc1ccc(-n2nc(C(C)(C)C)cc2NC(=O)Nc2ccc(OCCN3CCOCC3)c3ccccc23)cn1 | 21500 | 2.3e-05
COc1cc(NC(=O)Nc2cc(C(C)(C)C)nn2-c2ccc(C)cc2)c2ccccc2c1 | 36100 | 0.00034
Cc1ccc(-n2nc(C(C)(C)CO)cc2NC(=O)Nc2ccc(OCCN3CCOCC3)c3ccccc23)cc1 | 25400 | 0.0004
Cn1nc(C(C)(C)C)cc1NC(=O)Nc1ccc(OCCN2CCOCC2)c2ccccc12 | 145000 | 0.0033
Cc1ccc(-n2nc(C(C)(C)C)cc2NC(=O)Nc2ccccc2)cc1 | 73300 | 0.0016
Cc1ccc(-n2nc(C(C)(C)C)cc2NC(=O)Nc2cccc3ccccc23)cc1 | 113000 | 0.00012
Cc1ccc(-n2nc(C(C)(C)C)cc2NC(=O)Nc2ccc(OCCN3CCOCC3)c3ccccc23)cc1CN(C)C | 7900 | 3.8e-05
CC(C)c1cc(NC(=O)Nc2ccc(OCCN3CCOCC3)c3ccccc23)n(-c2ccccc2)n1 | 64800 | 0.00038
CC(C)(C)c1cc(NC(=O)Nc2ccc(OCCN3CCOCC3)c3ccccc23)n(-c2ccccc2)n1 | 154000 | 1.5e-05
CN(C)Cc1cccc(-n2nc(C(C)(C)C)cc2NC(=O)Nc2ccc(OCCN3CCOCC3)c3ccccc23)c1 | 1600 | 2.6e-05
COc1cc(NC(=O)Nc2cc(C(C)(C)C)nn2-c2ccc(C)cc2)c2ccccc2c1OCCN1CCOCC1 | 10700 | 0.00015
Cc1ccc(-n2nc(C(C)(C)C)cc2NC(=O)Nc2ccc(CCCN3CCOCC3)c3ccccc23)cc1 | 18700 | 2.3e-05
